The chains behind the UniProt entries cited, without tags or fusion partners. Where a name states a change or a piece, a line headed by the entry shows the natural chain unless it says otherwise.
UniProt P25106: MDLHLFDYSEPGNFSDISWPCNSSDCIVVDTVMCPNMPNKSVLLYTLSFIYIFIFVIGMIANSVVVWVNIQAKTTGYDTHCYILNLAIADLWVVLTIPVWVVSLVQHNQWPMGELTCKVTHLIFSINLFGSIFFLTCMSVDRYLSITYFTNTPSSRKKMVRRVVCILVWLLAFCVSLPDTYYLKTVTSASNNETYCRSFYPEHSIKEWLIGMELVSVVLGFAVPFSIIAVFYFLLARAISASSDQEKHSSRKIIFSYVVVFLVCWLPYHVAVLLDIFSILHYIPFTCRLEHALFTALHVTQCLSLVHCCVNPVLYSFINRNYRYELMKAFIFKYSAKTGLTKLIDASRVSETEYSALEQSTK

According to article PMC8033753, “Proadrenomedullin N-Terminal 20 Peptides (PAMPs) Are Agonists of the Chemokine Scavenger Receptor ACKR3/CXCR7” (ACS Pharmacology & Translational Science, 2021):

Target: T1, ACKR3 (Homo sapiens, UniProt P25106)
T1 construct: expressed in transfected cells; host or cells: HEK293T
Test: β-arrestin-2 recruitment to ACKR3, nanoluciferase complementation (NanoBiT) in HEK cells
Type: cell-based
Details: concentration range up to 9 μM
Protocol: Ligand-induced recruitment of β-arrestin, miniGi or miniGq proteins (engineered GTPase domain of Gα subunit)[46],[47] to the receptors was monitored using NanoBiT technology (Promega), as previously described.[27],[48] HEK293T cells (5 × 10^6 cells) were seeded in 10 cm dishes, and 24 h later, the cells were cotransfected with pNBe plasmids encoding the receptor C-terminally fused to SmBiT and β-arrestin, miniGi, or miniGq N-terminally fused to LgBiT. After 24 h, the cells were detached and incubated for 25 min at 37 °C with Nano-Glo Live Cell substrate diluted 200-fold, distributed into white 96-well plates (1 × 10^5 cells/well), and treated with the indicated concentrations of peptides. Luminescence was recorded during 20 min with a Mithras LB940 luminometer (Berthold Technologies). For the concentration–response curves, the signal recorded with a saturating concentration of full agonist for each receptor was set as 100%. For receptor screening experiments, results were expressed as fold vehicle, and an agonist chemokine (100 nM) listed in the IUPHAR repository of chemokine receptor ligands was included as a positive control for each receptor.
Concentration–response curves were fitted to the four-parameter Hill equation using an iterative, least-squares method (GraphPad Prism version 8.0.1). […]

For CC(C)C[C@H](NC(=O)CNC(=O)[C@H](C)NC(=O)[C@H](CC(C)C)NC(=O)[C@H](CCCNC(=N)N)NC(=O)[C@H](Cc1c[nH]cn1)NC(=O)[C@@H](NC(=O)[C@@H](NC(=O)[C@@H]1CSSC[C@H](NC(=O)[C@H](C)N)C(=O)N[C@@H](CC(=O)O)C(=O)N[C@@H]([C@@H](C)O)C(=O)N[C@@H](C)C(=O)N[C@@H]([C@@H](C)O)C(=O)N1)C(C)C)[C@@H](C)O)C(=O)N[C@@H](CC(C)C)C(=O)N[C@@H](CO)C(=O)N[C@@H](CCCNC(=N)N)C(=O)N[C@@H](CO)C(=O)NCC(=O)NCC(=O)N[C@H](C(=O)N[C@H](C(=O)N[C@@H](CCCCN)C(=O)N[C@@H](CC(N)=O)C(=O)N[C@@H](CC(N)=O)C(=O)N[C@@H](Cc1ccccc1)C(=O)N[C@H](C(=O)N1CCC[C@H]1C(=O)N[C@H](C(=O)N[C@@H](CC(N)=O)C(=O)N[C@H](C(=O)NCC(=O)N[C@@H](CO)C(=O)N[C@@H](CCCCN)C(=O)N[C@@H](C)C(=O)N[C@@H](Cc1ccccc1)C(N)=O)C(C)C)[C@@H](C)O)C(C)C)C(C)C)C(C)C [α-CGRP, reference compound], the “activity toward ACKR3 (β-arrestin-2 recruitment), in words” value was “No activity”.
